In the experiment the target is T1, IL-17 (Homo sapiens, UniProt Q16552).
T1 construct: serial dilutions of recombinant IL-17 were prepared in diluent
Description: Free IL-17 ELISA: capture antibody of DuoSet ELISA kit DY317 paired with mAb4538 as detection agent, IL-17 titration with 10 μM SM modulator. The experiment is classed as binding. The following applies: capture antibody of DuoSet ELISA kit DY317, detection agent mAb4538 500 ng/ml, FIGS. 2A-2F. As to the method: Two-fold and 8-point serial dilutions of recombinant IL-17 were prepared in diluent starting from 1 ng/ml, in duplicate. For testing differentiating property on SM modulators, IL-17 calibration samples were prepared in the presence of 10 μM SM modulators or vehicle control containing 0.1% DMSO. IL-17 samples were incubated for 1 hour at 37° C.
High binding 96-well plates were coated with 100 μL/well of 4 μg/ml capture antibody in PBS overnight at room temperature. Coated plates were washed 6×400 μL/well on plate washer (Zoom HT Microplate Washer) and blocked with 300 μL/well blocker (1% BSA in PBS) at room temperature for 2.5 hours followed by 6×400 μL/well on plate washer.
Samples were prepared by incubating titrated IL-17 with SM modulators at final concentration of 10 μM. IL-17 levels were measured in ELISA assay by adding 95 μL/well samples to the capture antibody coated plates. […] Reaction was then stopped by addition of 50 μL/well of stop solution and plates were measured in plate reader at 450-540 nm.
Optical density (OD) readout from plate reader (Molecular Devices Spectra Max 340fPC) were analyzed with Softmax Pro6.3 and GraphPad Prism, and plotted as dose response curve of OD values vs IL-17 concentrations.
On the technique in general: ELISA stands for enzyme-linked immunosorbent assay.

Sequences of proteins named here, by UniProt entry; tags and fusion partners are left off. Residues count along the entry.
UniProt Q16552, 24-155: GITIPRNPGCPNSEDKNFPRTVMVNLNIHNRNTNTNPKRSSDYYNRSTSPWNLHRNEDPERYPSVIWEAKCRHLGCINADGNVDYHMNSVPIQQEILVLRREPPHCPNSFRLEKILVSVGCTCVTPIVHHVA

B1: mAb4538: IL-17 antibody from Janssen Biotech, Inc., disclosed in U.S. Pat. No. 8,519,107; LC SEQ ID NO: 9, HC SEQ ID NO: 10 (antibody)
heavy: QVQLQQSGPGLVKPSQTLSLTCAISGDSVSSSSAAWGWIRQSPSRGLEWLGRISYRSKWYNDYAVSVKSRITINPDTSKNQFSLQLNSVTPEDTAVYYCAREVDSMYYSYFDIWGQGTLVTVSSASTKGPSVFPLAPSSKSTSGGTAALGCLVKDYFPEPVTVSWNSGALTSGVHTFPAVLQSSGLYSLSSVVTVPSSSLGTQTYICNVNHKPSNTKVDKKV[sequence of human IgG1 Fc not given]
light: EIVLTQSPATLSLSPGERATLSCRASQNVWAFYLAWYQQKPGQAPRLLIYGASNRATGIPARFSGSGSGTDFTLTISSLEPEDFAVYYCQQYRSTLSLTFGQGTKVEIKGQPKAAPSVTLFPPSSEELQANKATLVCLISDFYPGAVTVAWKADSSPVKAGVETTTPSKQSNNKYAASSYLSLTPEQWKSHRSYSCQVTHEGSTVEKTVAPTECS
modifications: HC of mAb4538 and mAb732; LC of mAb4538 and mAb3584
As for B1, the “detection of free IL-17 versus SM modulator-bound IL-17 (OD vs IL-17 concentration)” value was “only free IL-17 (that is not SM modulator bound) could be detected”.

Source of the values: patent US20220357341A1, “COMPOSITIONS AND METHODS FOR AN IL-17 TARGET ENGAGEMENT ASSAY WITH SMALL MOLECULE MODULATORS” (Janssen Pharmaceutica NV, priority 2019, published 2022).
